Molecular target: beta-lactamase TEM-1 (Escherichia coli) (UniProt Q5J463)
Assay: PubChem AID 2755
Conditions: TEM-1 enzyme, epi-absorbance substrate hydrolysis

`CCN1C(=O)c2cccc3c(N)ccc(c23)C1=O` gave an IC50 of 5.86 µM.
